Literature values as cited in paper PMC9932299.

Protein sequences, listed by entry. Tags and fused reporters are not part of them. Residues count along the entry.
UniProt P05067, 672-711: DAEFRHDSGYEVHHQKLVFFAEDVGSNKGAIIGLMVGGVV
UniProt P02649, 19-317: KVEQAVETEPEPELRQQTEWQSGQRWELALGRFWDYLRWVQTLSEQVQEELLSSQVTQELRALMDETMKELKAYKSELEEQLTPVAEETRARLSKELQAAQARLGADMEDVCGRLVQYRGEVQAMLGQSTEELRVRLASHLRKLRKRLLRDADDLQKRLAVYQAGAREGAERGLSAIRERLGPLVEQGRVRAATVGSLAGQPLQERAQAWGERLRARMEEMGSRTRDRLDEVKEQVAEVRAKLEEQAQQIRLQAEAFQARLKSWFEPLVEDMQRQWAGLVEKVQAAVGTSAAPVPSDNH

Biological target: Amyloid-beta (Homo sapiens) (UniProt P05067)

In the case of Apolipoprotein E (from UniProt P02649), the Kd is listed as 20 nM.
